Test system: male and female Sprague Dawley rats
Assay: Example 7: heart rate, blood pressure, temperature versus plasma concentration, s.c. bolus versus continuous infusion
Assay type: in vivo, rat
Conditions: for effect of escalating plasma concentrations on heart rate, blood pressure, body temperature: regardless of duration of dosing; for effect on heart rate, blood pressure, body temperature: intermediate plasma levels (~1 to ~11 ng/ml)
Source text: The magnitude of the induced changes in heart rate, blood pressure and body temperature in FIGS. 7A, 7B and 7C, likely resulted from the balance between direct agonist effect (dependent upon the concentration of the CRFR2 agonist) and the loss of agonist effect, both via metabolism (reducing the concentration of the agonist) as well as CRFR2 endocytosis (reducing the availability of the receptor). […] Thus for the specific agonist (CT38) and route of administration (subcutaneous) in Example 7, for a given agonist concentration at the receptor, differences between bolus and infused dosing were attributable solely to the duration of CRFR2 stimulation.
The heart rate under stress (but not the tonic regulation) is modulated by CRFR2 in the BNST. […] Thus, the lowest concentration of a 24-hour subcutaneous infusion of CT38 that caused CRFR2 endocytosis in the BNST of rats (i.e., where the curve for continuous dosing passes through the point of maximum heart rate decrease) was ˜1.0-2.0 ng/ml of sustained stimulation in rats, or a human equivalent of 1.1-1.6 ng/ml (based on pharmacokinetic-pharmacodynamic modeling, using human data from Example 9). The lowest concentration of a subcutaneous bolus of CT38 to induce CRFR2 endocytosis in the BNST of rats (i.e., where the curve for instantaneous dosing passes through the point of maximum heart rate increase) was 20.0 ng/ml (or a human equivalent of ˜3.2 ng/ml based on pharmacokinetic-pharmacodynamic modeling, using human data from Example 9), but only after inducing unacceptable changes in heart rate, blood pressure and body temperature.
Body temperature is controlled by the release of 5HT in the medial preoptic area of the hypothalamus, specifically involving post-synaptic 5HT2 receptors and presynaptic 5HT1A receptors. FIG. 7C identifies the lowest concentration of a 24-hour subcutaneous infusion of CT38 that caused CRFR2 endocytosis in the medial preoptic area of the hypothalamus of rats (i.e., where the curves for instantaneous and continuous dosing separate) was ˜1.0-3.0 ng/ml of sustained stimulation in rats, or a human equivalent of 1.1-1.9 ng/ml (based on pharmacokinetic-pharmacodynamic modeling, using human data from Example 9). The lowest concentration of a subcutaneous bolus of CT38 to induce CRFR2 endocytosis in the medial preoptic area of the hypothalamus of rats (i.e., where the curve for instantaneous dosing approaches the minimum temperature) was 20.0 ng/ml (or a human equivalent of ˜3.2 ng/ml based on pharmacokinetic-pharmacodynamic modeling, using human data from Example 9), but only after inducing intolerable changes in heart rate, blood pressure and body temperature.

[1] = pharmacokinetic-pharmacodynamic modeling using human data from Example 9

For `CC[C@H](C)[C@H](NC(=O)[C@@H](NC(=O)[C@H](CC(=O)O)NC(=O)[C@H](CC(C)C)NC(=O)[C@H](CC(C)C)NC(=O)[C@H](CCCNC(=N)N)NC(=O)[C@H](C)NC(=O)[C@H](CC(N)=O)NC(=O)[C@H](CC(N)=O)NC(=O)[C@H](C)NC(=O)[C@H](C)NC(=O)[C@H](CCC(N)=O)NC(=O)[C@H](CCC(N)=O)NC(=O)[C@H](CCCCN)NC(=O)[C@H](CCC(=O)O)NC(=O)[C@H](CCCCN)NC(=O)[C@H](CCC(=O)O)NC(=O)[C@H](CCC(N)=O)NC(=O)[C@H](CCCCN)NC(=O)[C@H](CCC(=O)O)NC(=O)[C@@H](NC(=O)[C@H](CCC(=O)O)NC(=O)[C@@H](NC(=O)[C@@H](NC(=O)[C@H](CCCCN)NC(=O)[C@H](CCCNC(=N)N)NC(=O)[C@H](CC(C)C)NC(=O)[C@H](CC(C)C)NC(=O)[C@H](CCC(N)=O)NC(=O)[C@H](Cc1ccccc1)NC(=O)[C@@H]1CCCN1C(=O)[C@H](CC(C)C)NC(=O)[C@H](CC(=O)O)NC(=O)[C@@H](NC(=O)[C@H](CO)NC(=O)[C@@H](NC(=O)[C@@H]1CCCN1C(=O)[C@@H]1CCCN1C(=O)CNC(=O)[C@@H]1CCC(=O)N1)[C@@H](C)CC)[C@@H](C)CC)C(C)C)[C@@H](C)CC)[C@@H](C)CC)[C@@H](C)O)C(N)=O` [CT38], the “minimum endocytotic concentration (plasma)” value (healthy humans, from Example 7) was 1.1 to 1.9 ng/mL, the “effect of escalating plasma concentrations on heart rate, blood pressure, body temperature” value (high plasma levels (~11 ng/ml and above), rats) was “a loss of the ability to induce an increase in heart rate or a decrease in blood pressure and body temperature” and the “effect on heart rate, blood pressure, body temperature” value (continuous dosing (infusion), rats) was “resulted in a loss of the ability to induce an increase in heart rate or a decrease in blood pressure or body temperature”. The “effect on heart rate, blood pressure, body temperature” value (instantaneous dosing (bolus), rats) was “caused an increase in heart rate and a decrease in blood pressure and body temperature”, the “effect of escalating plasma concentrations on heart rate, blood pressure, body temperature” value (low plasma concentrations (~1 ng/ml and below), rats) was “increased heart rate and decreased blood pressure and body temperature (very slightly)” and the “human equivalent of lowest bolus concentration inducing CRFR2 endocytosis in the BNST” value [1] was about 3.2 ng/mL. For the same molecule, the “human equivalent of lowest bolus concentration inducing CRFR2 endocytosis in the medial preoptic area of the hypothalamus” value [1] was about 3.2 ng/mL, the “human equivalent of lowest infusion concentration causing CRFR2 endocytosis in the BNST” value [1] was 1.1 to 1.6 ng/mL and the “human equivalent of lowest infusion concentration causing CRFR2 endocytosis in the medial preoptic area of the hypothalamus” value [1] was 1.1 to 1.9 ng/mL. For the same molecule, the “plasma concentration at which tachycardia was caused by instantaneous (bolus) dosing” value (rats) was 1.30 ng/mL, the “lowest concentration of a s.c. bolus to induce CRFR2 endocytosis in the medial preoptic area of the hypothalamus” value (rats, only after intolerable changes in heart rate, blood pressure, body temperature) was 20.0 ng/mL and the “lowest concentration of a s.c. bolus to induce CRFR2 endocytosis in the BNST” value (rats, only after unacceptable changes in heart rate, blood pressure, body temperature) was 20.0 ng/mL. The “lowest concentration of a 24-hour s.c. infusion that caused CRFR2 endocytosis in the medial preoptic area of the hypothalamus” value (rats, sustained stimulation, from body temperature curves FIG. 7C) was 1.0 to 3.0 ng/mL and the “lowest concentration of a 24-hour s.c. infusion that caused CRFR2 endocytosis in the BNST” value (rats, sustained stimulation, from heart rate curve FIG. 7A) was 1.0 to 2.0 ng/mL.

Reference: patent US11648295B2, “Methods of treating diseases resulting from a maladapted stress response” (Cortene Inc., priority 2016, dated 2023)
